Reference: patent US5726159A, “Antithrombotic agents” (Eli Lilly and Company, priority 1995, dated 1998)

Experiment: Index of bioavailability (% relative activity from plasma TT, oral vs i.v.)
Format: in vivo
Conditions: dose-adjusted AUC of plasma TT, p.o. vs i.v.

First: 1-Piq-Pro-p-NHCH2 C6 H4 C(NH)NH2.2HCl [Example 18]
Second: D-hPro-Pro-p-NHCH2 C6 H4 C(NH)NH2.HCl [Example 17]
The “% oral/i.v. activity (Rat)” value of the first is lower: 12% for the first, 15% for the second.

For “EtSO2 -D-Phe-Pro-p-NHCH2 -C6 H4 C(=NH)NH2.HCl [Example 23]”, the “% oral/i.v. activity (Rat)” value was 12%.
